This note sets out measurements from US20230143031A1 (published 2023).

The experiment addresses T1, gp100 peptide on HLA-A*02:01 (human).
T1 peptide: KTWGQYWQV
As to the kind of experiment: multimer staining.

B1: anti-gp100 TCR (TCR, V domains shown)
Valpha: DQQVKQNSPSLSVQEGRISILNCDYTNSMFDYFLWYKKYPAEGPTFLISISSIKDKNEDGRFTVFLNKSAKHLSLHIVPSQPGDSAVYFCAANSGGGADGLTFGKGTHLIIQP
Vbeta: SAVISQKPSRDICQRGTSLTIQCQVDSQVTMMFWYRQQPGQSLTLIATANQGSEATYESGFVIDKFPISRPNLTFSTLTVSNMSPEDSSIYLCSVAGPSGEKLFFGSGTQLSVL
As for B1, the binding result is given as “recognises”.
